US20150119399A1, “BETA-CELL REPLICATION PROMOTING COMPOUNDS AND METHODS OF THEIR USE” (President and Fellows of Harvard College, priority 2012, published 2015)

Chains of the proteins cited; added tags and fusions are not shown. Lines headed by an entry give the natural chain unless they say otherwise; changes in a name come on top.
UniProt Q9HCR9: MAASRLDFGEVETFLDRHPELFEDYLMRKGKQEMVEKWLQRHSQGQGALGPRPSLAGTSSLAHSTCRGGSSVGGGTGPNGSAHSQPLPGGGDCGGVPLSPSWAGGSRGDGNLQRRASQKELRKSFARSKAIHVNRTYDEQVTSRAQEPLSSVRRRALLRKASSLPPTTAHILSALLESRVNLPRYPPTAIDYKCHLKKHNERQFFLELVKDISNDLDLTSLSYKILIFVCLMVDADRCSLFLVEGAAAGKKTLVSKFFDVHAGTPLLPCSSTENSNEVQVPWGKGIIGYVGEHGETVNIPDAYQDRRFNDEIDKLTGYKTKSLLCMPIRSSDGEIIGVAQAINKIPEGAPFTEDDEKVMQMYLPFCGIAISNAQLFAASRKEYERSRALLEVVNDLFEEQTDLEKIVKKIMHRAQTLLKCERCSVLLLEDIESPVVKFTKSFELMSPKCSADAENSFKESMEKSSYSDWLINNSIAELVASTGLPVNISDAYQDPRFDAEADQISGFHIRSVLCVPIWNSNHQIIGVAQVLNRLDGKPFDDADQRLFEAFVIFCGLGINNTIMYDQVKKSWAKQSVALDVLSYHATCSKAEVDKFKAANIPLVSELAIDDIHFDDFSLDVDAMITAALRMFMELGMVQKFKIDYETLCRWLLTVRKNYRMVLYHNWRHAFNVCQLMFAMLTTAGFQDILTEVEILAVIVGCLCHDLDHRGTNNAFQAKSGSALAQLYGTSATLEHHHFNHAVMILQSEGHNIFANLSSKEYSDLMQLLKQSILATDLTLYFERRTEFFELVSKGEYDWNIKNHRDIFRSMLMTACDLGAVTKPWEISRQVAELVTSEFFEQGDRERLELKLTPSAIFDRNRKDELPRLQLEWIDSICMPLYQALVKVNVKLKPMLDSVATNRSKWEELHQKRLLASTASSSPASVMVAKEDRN

What was measured:
recombinant PDE5 = recombinant PDE5 (Homo sapiens, UniProt O76074); conditions: in vitro selectivity assay using recombinant PDE
From the text: (§1) Rows list the PDE inhibitors. Columns list the recombinant human PDE enzymes.

recombinant human PDE11A = recombinant human PDE11A (Homo sapiens, UniProt Q9HCR9); conditions: in vitro selectivity assay using recombinant PDE
From the text: as §1

CN1CC(=O)N2[C@H](c3ccc4c(c3)OCO4)c3[nH]c4ccccc4c3C[C@@H]2C1=O [Tadalafil, (6R-trans)-6-(1,3-benzodioxol-5-yl)-2,3,6,7,12,12a-hexahydro-2-methyl-pyrazino[1′,2′:1,6]pyrido[3,4-b]indole-1,4-dione]
inhibition of PDE5 (inhibitor class) (recombinant PDE5): potent inhibitors
inhibition of PDE11A (inhibitor class) (recombinant human PDE11A): potent inhibitor (the agent exhibits at least 75% inhibition of enzymatic activity in an in vitro selectivity assay using a recombinant PDE)
